Results as given in paper PMC3364022.

Chains of the proteins cited; added tags and fusions are not shown.
Mcl-1 (Homo sapiens), Q07820, UniProt Q07820, whole entry: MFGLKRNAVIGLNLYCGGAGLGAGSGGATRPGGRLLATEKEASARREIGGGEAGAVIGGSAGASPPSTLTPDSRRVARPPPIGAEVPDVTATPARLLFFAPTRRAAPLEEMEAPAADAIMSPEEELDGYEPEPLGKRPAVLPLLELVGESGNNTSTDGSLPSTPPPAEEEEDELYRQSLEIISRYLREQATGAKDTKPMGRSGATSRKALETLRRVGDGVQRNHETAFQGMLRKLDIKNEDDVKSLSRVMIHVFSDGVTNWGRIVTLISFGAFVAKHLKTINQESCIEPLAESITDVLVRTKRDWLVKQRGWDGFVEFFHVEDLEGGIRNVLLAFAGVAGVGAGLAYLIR

Biological target: Mcl-1 (Homo sapiens), Q07820
Experiment: competition FP
Details: modification not given

B1: Bim BH3 18-mer peptide 1 BH3, O43521 (peptide)
chain: IWIAQELRRIGDEFNAYY
**Q.** How did the Ki turn out when B1 was run?
**A.** The Ki was < 3 nM.
